The values below come from patent US20160282354A1, “COMPOSITIONS AND METHODS FOR SELECTING A TREATMENT FOR B-CELL NEOPLASIAS” (THE BROAD INSTITUTE, INC., priority 2013, published 2016).

Amino acid sequences for entries named in this document (tags omitted). Residues count along the entry.
UniProt Q8BK63, 2-337 limits assumed: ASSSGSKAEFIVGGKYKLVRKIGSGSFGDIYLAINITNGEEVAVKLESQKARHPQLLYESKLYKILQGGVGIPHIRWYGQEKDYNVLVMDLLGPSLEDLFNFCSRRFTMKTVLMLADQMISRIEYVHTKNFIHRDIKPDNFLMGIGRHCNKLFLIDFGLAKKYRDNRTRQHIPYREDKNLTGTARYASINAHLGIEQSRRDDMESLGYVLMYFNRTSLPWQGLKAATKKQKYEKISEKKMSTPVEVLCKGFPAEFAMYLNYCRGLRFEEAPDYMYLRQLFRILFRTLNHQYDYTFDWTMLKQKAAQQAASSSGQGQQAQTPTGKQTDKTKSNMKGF

Entries after “also recorded” stand apart in the source; their conditions may differ.

The assay deals with T1, CSNK1A1 (Mus musculus, UniProt Q8BK63).
T1 construct: endogenous in cells; host or cells: Ba/F3; primary murine MLL-AF9 AML cells
It counts as cell-based, murine. Conditions: lenalidomide 24 hours in vitro. The method, then: CSNK1A1 protein levels were assessed by immunoblot. […] Non-conserved amino acids are indicated by red bars.

Regarding `Nc1cccc2c1CN(C1CCC(=O)NC1=O)C2=O` (centres unmarked) [lenalidomide], the “CSNK1A1 protein levels in murine Baf3 cells” value is given as “No change; also recorded: did not decrease Csnk1a1 protein levels” and the “CSNK1A1 protein levels in primary MLL-AF9 transformed mouse cells” value is reported as “No change; also recorded: did not decrease Csnk1a1 protein levels”.
